Columns and labels:
[1] = test system: K382 acetylation in NCI-H1299 p53-null cells; assay: p53K382ac level, Western blot, NCI-H1299 p53-null; conditions: 0, 1, 3, 10 μM, 24 h
Experimental: (§1) . […] We also confirmed that the effect of MS78 on inducing p53 Y220C K382 acetylation was abolished in p300 knockdown cells (FIG. 7F).
FIG. 7. […] . Cell viability of MS78, PK9328 and compound 33 in (A) NCI-H1299 p53-null and (B) NCI-H1299 p53Y220C cells. The cells were treated with the indicated compounds at the indicated concentrations for 72 h. The mean values ±SD from three independent experiments are shown. […] . Right, quantification of the p53K382ac protein level normalized to Vinculin from two independent experiments. […] . Total cell lysate was used for western blots, as previously described.^47 The following primary antibodies were used in the study: Vinculin (Cell Signaling Technology [CST], 13901), p53 (CST, 2527), acetyl-p53 (lys-382) (CST, 2525), acetyl-p53 (lys-379) (CST, 2570), p21 (CST, 2947), p300 (CST, 86377), p53 polyclonal antibody (Proteintech, 10442-1-AP). Blots were imaged using fluorescence-labeled secondary antibodies on LI-COR Odyssey CLx Imaging Systems.

[2] = test system: NUGC-3 cells; assay: cell viability, NUGC-3, 72 h; conditions: NUGC-3; ratio of GI50
From the text: Right: quantification of the normalized p53K382ac level in BxPC3 cells from three independent experiments. *P<0.05, **P<0.01, ***P<0.001. […] . GraphPad Prism 8 was used in analysis of raw data. […] . Cells were fixed and stained with crystal violet and the images are representative of two independent experiments. […] . The tumor-suppressive effect of MS78 in p53Y220C-harboring cancer cell lines was examined. […] . NCI-H1299 (CRL-5803), BxPC3 (CRL-1687) and U-20S (HTB-96) were purchased from the American Tissue Culture Collection (ATCC, Manassas, VA). In addition, NUGC-3 were obtained from the Japan Health Science Research Resources Bank (JCRB, JCRB0822). NCI-H1299, BxPC3 and NUGC-3 were cultured in RPMI 1640 medium (Thermo Fisher Scientific Inc., Waltham, Massachusetts) supplemented with 10% heat-inactivated fetal bovine serum Gibco™ (FBS) (Life Technologies, Grand Island, NY) and 1% Gibco™ Penicillin/Streptomycin (Life Technologies, Grand Island, NY). […]
(§2) The cell viability assay was performed as previously described.^48 Briefly 5×10^4 cells were seeded per well into 96-well microplates. […] Cell viability was evaluated using WST-8 reagent (CK04, Dojindo). Absorbance signals were obtained with Infinite F PLEX plate reader (TECAN, Morrisville, NC) at 450 nm with 690 nm as reference wavelength after 3 h incubation at 37 °C. […]

[3] = test system: NCI-H1299 p53Y220C cells; assay: cell viability, NCI-H1299 p53Y220C
Experimental: as §1
FIG. 7. […] . Cell viability of MS78, PK9328 and compound 33 in (A) NCI-H1299 p53-null and (B) NCI-H1299 p53Y220C cells. The cells were treated with the indicated compounds at the indicated concentrations for 72 h. The mean values ±SD from three independent experiments are shown. […] . Right, quantification of the p53K382ac protein level normalized to Vinculin from two independent experiments. […] . For siRNA transfection, control and p300 siRNA (sc-29431) were purchased from Santa Cruz Biotechnology. Briefly, NCI-H1299 cells were seeded on 6-well plates at a density of 3×10^5 cells/well (~75-80% confluency). Cells were transfected the following day with Lipofectamine 3000 transfection reagent (L3000008, ThermoFisher Scientific) and harvested 48 h after transfection. For the construction of FLAG-p53Y220C stable cell lines, transfected NCI-H1299 cells were selected with G418 for 14 days.
as §2

[4] = test system: mRNA levels of p53-target genes in NCI-H1299 p53Y220C cells; assay: RT-qPCR of p53-target genes, NCI-H1299 p53Y220C; conditions: 10 μM, 24 h, vs DMSO
Experimental: . FIG. 15. RT-qPCR analysis of relative mRNA levels of p53-target genes. NCI-H1299 p53Y220C stable cells were treated with DMSO, PK9328 or MS78 at 10 μM for 24 h. The mRNA expression for each target gene was first normalized to internal GAPDH and then calculated relative to the DMSO control. The mean value±SD for each gene (in technical triplicates from three biological experiments) is shown. ** P<0.01, *** P<0.001, ns: not significant.
The RT-qPCR was performed as previously described.^47, 49 Briefly, NCI-H1299 p53Y220C stable cells were treated with DMSO or 10 μM of PK9328, Compound 17 or MS78 for 24 h. Total RNA was extracted using the Monarch Total RNA Miniprep Kit (T2010S, New England Biolabs), and cDNA was generated using the SuperScript IV First-Strand Synthesis System (18091050, Thermo Fisher). qPCR was performed using the PowerUp SYBR Green Master Mix (Thermo Fisher Scientific, A25742) on Agilent Technologies Stratagene Mx3005p qPCR system. RxnReady™ premixed primer pairs for p53, p21, TIGAR, BAX, PUMA and MDM2 were purchased from Integrated DNA Technologies, Inc. (Coralville, Iowa). GAPDH forward: 5′-[…]-3′, GAPDH reverse: 5′-GCCATCACGCCACAGTTTC-3′ was used as controls. The mRNA expression for each target gene was first normalized to internal GAPDH and then calculated relative to the DMSO control. Experiments were performed in triplicates.

For `CCn1c2ccc(CNCCOCCOCCOCCn3cc(COc4ccc(CCc5nc6cc(-c7c(C)noc7C)ccc6n5CCN5CCOCC5)cc4F)nn3)cc2c2ccc(-c3cc(C)cs3)cc21`, the K382 acetylation [1] was “did not induce K382 acetylation”, the “higher potency compared to PK9328” value [2] was “about 4 fold” and the “selectivity of anti-proliferative activity” value ([3]; Y220C-mutant cancer cells vs WT p53 cancer cells and normal cells) was “selective for cancer cells with the Y220C mutation over cancer cells with WT p53 and normal cells”. The “anti-proliferative effect upon p300 knockdown” value ([3]; p300-siRNA-treated NCI-H1299 p53Y220C, 72 h) was “abolished the anti-proliferative effect”, the “Mdm2 mRNA expression” value [4] was “less upregulation in CDKN1A and Mdm2 compared to PK9328” and the “TIGAR, BAX and PUMA (BBC3) mRNA expression” value [4] was “little or modest effect”. The “increase in p21 mRNA expression” value [4] was 8 fold and the “p21 (CDKN1A) mRNA expression” value [4] was “less upregulation in CDKN1A and Mdm2 compared to PK9328”.

From patent US20260382729A1, “HETEROBIFUNCTIONAL COMPOUNDS AS p53 ACETYLATORS” (published 2026)
